# Measured affinities in a library of Ab-14 heavy chain variants

Target: peptide PDVDLGDISGINAS, taken from heptad repeat 2 (HR2) of SARS-CoV-2 spike.

Each scFv is VH, a 15-residue (Gly4Ser)3 linker, VL, as in the parent Ab-14, and differs from it in the CDRs of the heavy chain only.
VH: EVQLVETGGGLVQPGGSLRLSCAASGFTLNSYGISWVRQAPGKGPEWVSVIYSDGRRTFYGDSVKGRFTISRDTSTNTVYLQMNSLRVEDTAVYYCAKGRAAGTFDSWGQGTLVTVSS
VL: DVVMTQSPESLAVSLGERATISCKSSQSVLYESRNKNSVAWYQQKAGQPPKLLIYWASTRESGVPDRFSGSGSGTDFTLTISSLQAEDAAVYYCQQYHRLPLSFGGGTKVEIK

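Phage display of a naive human antibody library on the peptide gave the parent. These sequences belong to a second round, designed from the earlier measurements on random variants of the parent. Several design methods are mixed in this list. The assay is AlphaSeq: two haploid yeast populations carry antibody and antigen on their surface. Mating (16 h, 30 °C) was followed by selection of diploids and sequencing of their barcodes. Read counts were normalised to the haploid input and turned into Kd by a linear fit to BCL2-family pairs of known affinity, for each replicate. There are six technical replicates.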

Each variant is given by its three heavy chain CDRs, as the data file delimits them; those of the parent are GFTLNSYGIS, VIYSDGRRTFYGDSVK, GRAAGTFDS.
This list holds designs with more than six substitutions.
Kd is apparent (estimated from mating counts) and averaged on the log scale over replicates with a signal. Smaller is tighter.
"no signal" means that the variant was in the library but no mating with the target was seen in any replicate; the authors take this as a sign of poor binding, and no number exists.
Of ten entries with the parent sequence, four were seen in most replicates (averages 2.2 nM to 240 nM), three in one and three in none, so single entries are noisy.

CDR-H1,CDR-H2,CDR-H3,apparent Kd,seen in
GFDINEYGVS,VIYADGMRSSYQDKVK,GSNGSLFDV,2.9 µM,2/6
GFDLNEYGIS,VIYADGRRTFYSDSVK,GGVAGTFDV,120 pM,6/6
GFDLNEYGIS,VIYADGMRTAYIDSVK,GNVAGTFDQ,640 pM,6/6
GFDLNEYGIS,VIYADGMRTFYADDVK,GQVAGTFDV,380 pM,6/6
GFNLDEYGIS,VIYADGRRTFYQDSVK,GNVAGTFDS,430 pM,6/6
GFDLNEYGIS,VIYADGKRTAYADKVK,GNTAGTFDV,260 pM,6/6
GFGLNQYGIS,VIYSDGRRKFYGDSVR,NRAKGTFDQ,no signal,0/6
GEDLMEYGIS,VIYADGERKSYVNSVK,GGVSVTFST,no signal,0/6
GFDLNEYGIS,VIYADGMRTFYSDSVK,GTVAGTFDV,270 pM,6/6
GFDLNEYGIS,VIYADGRRTQYIDSVK,GEIAGTFDK,300 pM,6/6
GFDIKEYGIS,VIYADGQRTAYKPTVK,GNHTGLVFI,no signal,0/6
GFDLNEYGIS,VIYADGMRTFYVDSVK,GVNAGTFDV,3.0 nM,6/6
GFDLNEYGIS,VIYADGMRTYYSDSVK,GNVAGTFDQ,470 pM,6/6
GFDLNEYGIS,VIYADGMRTAYTDSVK,GNEAGTFDM,3.8 nM,6/6
GFDINEYGIS,VIYADGRRTAYADSVK,GQTAGTFDS,480 pM,6/6
GFDLNEYGIS,VIYADGKRTFYADSVK,GEAAGTFDI,400 pM,6/6
GDGLQEYGIS,VIYADGFRSSYSNDVK,GTNAGIFMQ,no signal,0/6
GFLLNEYGIS,VIYADGLRTQYAENVK,GDLAGYLDS,no signal,0/6
GFDLNEYGIS,VIYADGMRTFYADSVK,GQVAGTFDF,290 pM,6/6
GFDLDEYGIS,VIYADGKRTAYADSVK,GNEAGTFDV,530 pM,6/6
GFDLNEYGIS,VIYADGRRTFYADSVK,GNNAGTFIL,8.1 nM,5/6
GEDLDEYGIS,VIYADGRRVVYQDQFK,GELAGTFDQ,2.0 nM,3/6
GFDIQDYGIS,VIYADGQRAAYADGVK,GLIAGIFNT,17 nM,6/6
GFDLNEYGIS,VIYADGMRTFYADSVK,GKNAGTFLV,30 nM,6/6
GFDLNEYGIS,VIYADGKRTFYADSVK,GNVAGTFFS,630 pM,6/6
GFTLDEYGIS,VIYADGRRTFYADSVK,GQVAGTFDQ,380 pM,6/6
GFNLNEYGIS,VIYADGQRTSYTDQVK,GVETGAVLD,no signal,0/6
GFDLEDYGIS,VIYADGMRTAYSDSVK,GNVAGTFDQ,150 pM,6/6
GFSLDEYGIS,VIYADGVRTQYDDSFK,GTGGFDIEL,3.5 nM,1/6
GFDLNEYGIS,VIYADGQRTAYTDSVK,GNQAGTFDV,200 pM,6/6
GFDLNEYGIS,VIYADGKRTFYSDSVK,GNQGGTFDV,3.5 nM,6/6
GFGLSEYGIS,VIYADGVRASYADNVK,GFNYGQDIL,no signal,0/6
GFDLNEYGIS,VIYADGRRTFYSDSVK,GQLAGTFDA,470 pM,6/6
GESLKEYGIS,VIYADGMRNAYVSKVK,GEVSGDFTI,no signal,0/6
GFDIEEYGIS,VIYADGERTSYSNAVK,GNMAGTFLI,4.7 nM,6/6
GFDLDEYGIS,VIYADGMRTFYSDSVK,GNVAGTFDL,280 pM,6/6
GFDLEDYGIS,VIYADGKRTQYADSVK,GEAAGTFDL,13 nM,6/6
GFDLNEYGIS,VIYADGMRTAYADSVK,GEVAGTFDV,400 pM,6/6
GFDLDEYGIS,VIYADGMRTAYVDSVK,GEVAGTFDV,170 pM,6/6
GFDLNEYGIS,VIYADGQRTAYTDSVK,GEAAGTFDL,650 pM,6/6
GFNLSEYGIS,VIYADGMRSNYADSVK,GHGGNFFID,no signal,0/6
GFDLNEYGIS,VIYADGQRTAYADTVK,GNVAGTFDV,190 pM,6/6
GFDLDEYGIS,VIYADGRRTFYQDSVK,GNVAGTFDF,400 pM,6/6
GFNLNEYGIS,VIYADGMRTFYTDDVK,GEFAGTFDL,970 pM,6/6
GFDLDEYGIS,VIYADGVRTAYADSVK,GTNAGTFDL,290 pM,6/6
GFDLNEYGIS,VIYADGMRTAYSDSVK,GANAGTFDQ,760 pM,6/6
GEDLNSYGIS,VIYADGLRTAYADNFK,GNGEGQFDV,no signal,0/6
GFDLDEYGIS,VIYADGMRTAYSDDVK,GQNAGTFDV,110 pM,6/6
GFDLNEYGIS,VIYADGKRTAYADNVK,GETAGTFDV,400 pM,6/6
GFDINEYGIS,VIYADGSRQYYADNVK,GVMNIMMEV,no signal,0/6
GFGLNDYGIS,VIYSDGRRTFYNDDVK,QRAAGTGFS,no signal,0/6
GFDLNEYGIS,VIYADGMRTFYADSVK,GENAGTFDV,320 pM,6/6
GFDLEEYGIS,VIYADGKRTAYADSVK,GNTAGTFDV,1.1 nM,6/6
GFDLNEYGIS,VIYADGVRTAYSDSVK,GETAGTFDI,500 pM,6/6
GINLEEYGIS,VIYADGRRKAYTDKVK,GGNGVMTFV,no signal,0/6
GFDLNEYGIS,VIYADGQRTAYADSVK,GKVAGTFDF,530 pM,6/6
GFDLDEIGIS,VIYADGRRTVYTDKVK,GANGVDIKV,8.1 nM,6/6
GFDLNEYGIS,VIYADGRRTAYTDSVK,GENAGTFDL,440 pM,6/6
GFTLDEYGIS,VIYADGRRTFYSDSVK,GSNAGTFDV,400 pM,6/6
GFDLDEYGIS,VIYADGRRTFYKDSVK,GSNAGTFVM,no signal,0/6
GFDLDEYGIS,VIYADGTRSGYTANVK,GEAAGITMF,no signal,0/6
GFDLNEYGIS,VIYADGKRTFYADSVK,GEAAGTFDQ,420 pM,6/6
GFDLNEYGIS,VIYADGMRTFYSDSVK,GAVAGTFDK,220 pM,6/6
GFDLNEYGIS,VIYADGVRTAYSDSVK,GQTAGTFDV,180 pM,6/6
GFDLDEYGIS,VIYADGVRTAYADNVK,GEVAGTFDV,540 pM,6/6
GFDLDEYGIS,VIYADGRRTAYANSVK,GEVAGTFDV,250 pM,6/6
GFDLNEYGIS,VIYADGKRKAYADDVK,GNVAGTFDV,3.9 nM,2/6
GFQLDEVGIS,VIYADGIRRAYASKVK,GGNGGSFDL,no signal,0/6
GFDLNEYGIS,VIYADGIREHYKDSVK,GVVFGDVLF,no signal,0/6
GFDLEDYGIS,VIYADGRRTAYADSVK,GEAAGTFDV,260 pM,6/6
GFDLNEYGIS,VIYADGMRTAYSDKVK,GNVAGTFDM,1.1 nM,6/6

The 8 strongest on average among those seen in every replicate, once more:

{"CDR-H1": "GFDLDEYGIS", "CDR-H2": "VIYADGMRTAYSDDVK", "CDR-H3": "GQNAGTFDV", "apparent Kd": "110 pM", "seen in": "6/6"}
{"CDR-H1": "GFDLNEYGIS", "CDR-H2": "VIYADGRRTFYSDSVK", "CDR-H3": "GGVAGTFDV", "apparent Kd": "120 pM", "seen in": "6/6"}
{"CDR-H1": "GFDLEDYGIS", "CDR-H2": "VIYADGMRTAYSDSVK", "CDR-H3": "GNVAGTFDQ", "apparent Kd": "150 pM", "seen in": "6/6"}
{"CDR-H1": "GFDLDEYGIS", "CDR-H2": "VIYADGMRTAYVDSVK", "CDR-H3": "GEVAGTFDV", "apparent Kd": "170 pM", "seen in": "6/6"}
{"CDR-H1": "GFDLNEYGIS", "CDR-H2": "VIYADGVRTAYSDSVK", "CDR-H3": "GQTAGTFDV", "apparent Kd": "180 pM", "seen in": "6/6"}
{"CDR-H1": "GFDLNEYGIS", "CDR-H2": "VIYADGQRTAYADTVK", "CDR-H3": "GNVAGTFDV", "apparent Kd": "190 pM", "seen in": "6/6"}
{"CDR-H1": "GFDLNEYGIS", "CDR-H2": "VIYADGQRTAYTDSVK", "CDR-H3": "GNQAGTFDV", "apparent Kd": "200 pM", "seen in": "6/6"}
{"CDR-H1": "GFDLNEYGIS", "CDR-H2": "VIYADGMRTFYSDSVK", "CDR-H3": "GAVAGTFDK", "apparent Kd": "220 pM", "seen in": "6/6"}

In the paper, a design with two or fewer of six values counts as a poor binder.
Three control strains display no target. For all heavy chain designs, 1% of the pairings with them gave a signal, with a median of 120 nM and one signal in twenty below 7.0 nM, so weak values seen in few replicates may be background.
A sequence measured in both rounds can read differently, since the two assays cover different ranges.

The measurements come from Li et al. 2023 (doi:10.1038/s41467-023-39022-2) through the FLAb antibody collection.